Measurements published in patent publication US8653100B2 (AbbVie Inc., priority 2008, dated 2014).
Where two headings read alike, the source gives them in different places.

Amino acid sequences for entries named in this document (tags omitted).
UniProt P48067, whole entry: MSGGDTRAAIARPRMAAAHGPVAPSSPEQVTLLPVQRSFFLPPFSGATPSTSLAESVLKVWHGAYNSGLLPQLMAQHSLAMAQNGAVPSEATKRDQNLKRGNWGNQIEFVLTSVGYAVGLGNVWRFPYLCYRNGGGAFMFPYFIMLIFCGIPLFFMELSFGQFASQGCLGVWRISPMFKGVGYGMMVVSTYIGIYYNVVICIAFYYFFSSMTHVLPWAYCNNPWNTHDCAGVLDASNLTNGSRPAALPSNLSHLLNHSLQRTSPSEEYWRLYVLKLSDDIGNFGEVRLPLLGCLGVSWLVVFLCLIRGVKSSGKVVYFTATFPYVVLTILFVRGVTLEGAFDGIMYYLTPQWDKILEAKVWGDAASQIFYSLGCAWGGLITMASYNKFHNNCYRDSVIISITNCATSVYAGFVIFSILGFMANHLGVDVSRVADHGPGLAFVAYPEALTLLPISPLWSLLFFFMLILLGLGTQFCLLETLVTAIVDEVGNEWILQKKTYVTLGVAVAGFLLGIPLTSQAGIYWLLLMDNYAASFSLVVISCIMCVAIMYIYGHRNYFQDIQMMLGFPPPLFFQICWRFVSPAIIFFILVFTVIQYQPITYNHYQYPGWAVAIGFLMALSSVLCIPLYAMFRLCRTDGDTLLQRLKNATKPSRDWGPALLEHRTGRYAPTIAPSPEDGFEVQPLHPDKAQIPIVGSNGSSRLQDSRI

Legend:
human GlyT1c = human GlyT1c (Homo sapiens (Human), UniProt P48067); test: [3H]-Glycine uptake into recombinant CHO cells expressing human GlyT1; format: cell-based; settings: read-out: Glycine uptake IC50, hGlyT1c_5_CHO cells, 200 nM [3H]-glycine
Description: [^3H]-Glycine uptake into recombinant CHO cells expressing human GlyT1: Human GlyT1c expressing recombinant hGlyT1c—5_CHO cells were plated at 20,000 cells per well in 96 well Cytostar-T scintillation microplates (Amersham Biosciences) and cultured to sub-confluency for 24 h. […] The plates were placed in a Wallac Microbeta (PerkinElmer) and continuously counted by solid phase scintillation spectrometry during up to 3 hours. […] IC50 calculations were made by four-parametric logistic nonlinear regression analysis (GraphPad Prism) using determinations within the range of linear increase of [^3H]-glycine incorporation between 60 and 120 min.

human GlyT1c transporter = human GlyT1c transporter (Homo sapiens (Human), UniProt P48067); test: Radioligand binding assay using recombinant CHO cell membranes expressing human GlyT1; settings: read-out: radioligand binding Kiapp, radioligand [3H]-(R)-NPTS (examples 1-19, 22-52, 54-87), tested form: HCl
Description: 2. Radioligand binding assays using recombinant CHO cell membranes expressing human GlyT1:
Radioligand binding to human GlyT1c transporter-expressing membranes was carried out as described in Mezler et al., Molecular Pharmacology 74:1705-1715, 2008.
More specifically, [^3H]-(R)-NPTS radioligand binding to human GlyT1c transporter-expressing membranes was measured in duplicate in a total volume of 200 μl in 96-well plates. To 100 μl of membrane suspension (yielding a final membrane protein concentration of 50 μg/ml) in assay buffer (120 mM NaCl, 2 mM KCl, 10 mM Hepes, 1 mM MgCl2, 1 mM CaCl2, pH 7.5) […] of [^3H]-(R)-NPTS (0.5 nM final) were added in assay buffer. For competition experiments 10 μl of buffer or unlabeled compound solution obtained from dilution series of test compounds in DMSO followed. An intermediate 1:10 dilution in assay buffer yielded a final DMSO concentration of 1%. Non-specific binding was determined in the presence of 10 μM Org24598 (or its racemate Org24461) for [^3H]-(R)-NPTS. After incubation at room temperature for 1 h, the incubation mixture was harvested (Tomtec Mach III U Harvester) through 96-well GF/B filter plates (PerkinElmer), presoaked for 1 h with 40 μl per well of 0.1% polyethylene-imine (PEI). […] The radioactivity was determined by liquid scintillation spectrometry in a MicroBeta (PerkinElmer) plate counter. […]

Row | Compound | IC50 (human GlyT1c; tested form: 2HCl) | IC50 (human GlyT1c; tested form: HCl) | Ki (human GlyT1c transporter)
1 | O=S(=O)(NCCOc1ccc2c(c1)CCNC2C1(c2ccc(Cl)cc2)CCC1)c1cccnc1 (stereo not shown) | ≤ 10 µM |  | 
2 | CCCS(=O)(=O)NCCOc1ccc(Br)c2c1C(C1(c3ccc(F)cc3)CCC1)NCC2 (stereo not shown) |  | ≤ 1 µM | 
3 | CC(C)S(=O)(=O)NCCOc1ccc2c(c1)CCNC2C1(c2ccc(Cl)cc2)CCC1 (stereo not shown) |  | ≤ 100 µM | ≤ 100 µM
